Assay results reported in paper PMC6435016 (Biophysics and Physicobiology, 2019).

Target: the molecule itself
Assay: SEC

B1: Grb2 SH2 monomer (SH2 domain of human Grb2, residues 60-152) (domain or fragment, UniProt P62993 60-152, looked up)
chain: WFFGKIPRAKAEEMLSKQRHDGAFLIRESESAPGDFSLSVKFGNDVQHFKVLRDGAGKYFLWVVKFNSLNELVDYHRSTSVSRNQQIFLRDIE
stoichiometry N: 2
